# Results reported in PubChem BioAssay (NCI).
#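 Test compounds were applied to cells in 96-well plates for 48 hours at 5 doses. Here, GI50 denotes the concentration required for 50% inhibition of growth. The concentration for full growth arrest is given as TGI.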
# Assays:
# Assay in all cases: inhibition of tumour cell growth, NCI panel, 48 h
# NCI-H460 lung = test system: NCI-H460 lung
# OVCAR-3 ovarian = test system: OVCAR-3 ovarian
# SNB-19 CNS = test system: SNB-19 CNS
# EKVX NSCLC = test system: EKVX NSCLC
# K-562 leukemia = test system: K-562 leukemia
# HCC-2998 colon = test system: HCC-2998 colon
# KM20L2 colon = test system: KM20L2 colon
# NCI-H522 lung = test system: NCI-H522 lung
# NCI/ADR-RES ovarian = test system: NCI/ADR-RES ovarian
# HOP-92 NSCLC = test system: HOP-92 NSCLC
# M14 melanoma = test system: M14 melanoma
# SF-295 CNS = test system: SF-295 CNS
# U251 CNS = test system: U251 CNS
# OVCAR-4 ovarian = test system: OVCAR-4 ovarian
# UACC-257 melanoma = test system: UACC-257 melanoma
# RPMI-8226 leukemia = test system: RPMI-8226 leukemia
# CCRF-CEM leukemia = test system: CCRF-CEM leukemia
# MCF7 breast = test system: MCF7 breast
# XF 498 CNS = test system: XF 498 CNS
# IGROV1 ovarian = test system: IGROV1 ovarian
# SK-OV-3 ovarian = test system: SK-OV-3 ovarian
# SR leukemia = test system: SR leukemia
# HOP-62 NSCLC = test system: HOP-62 NSCLC
# MDA-N = test system: MDA-N
# HT29 colon = test system: HT29 colon
# COLO 205 colon = test system: COLO 205 colon
# UO-31 renal = test system: UO-31 renal
# NCI-H23 lung = test system: NCI-H23 lung
# KM12 colon = test system: KM12 colon
# TK-10 renal = test system: TK-10 renal
# OVCAR-8 ovarian = test system: OVCAR-8 ovarian
# HCT-15 colon = test system: HCT-15 colon
# LXFL 529 NSCLC = test system: LXFL 529 NSCLC
# ACHN renal = test system: ACHN renal
# SN12C renal = test system: SN12C renal
# MDA-MB-231 breast = test system: MDA-MB-231 breast
# HL-60(TB) leukemia = test system: HL-60(TB) leukemia
# HS 578T breast = test system: HS 578T breast
# 786-0 renal = test system: 786-0 renal
# A549 NSCLC = test system: A549 NSCLC
# M19-MEL melanoma = test system: M19-MEL melanoma
# RXF 393 renal = test system: RXF 393 renal
# SK-MEL-5 melanoma = test system: SK-MEL-5 melanoma
# SNB-78 CNS = test system: SNB-78 CNS
# SK-MEL-28 melanoma = test system: SK-MEL-28 melanoma
# NCI-H226 lung = test system: NCI-H226 lung
# MALME-3M melanoma = test system: MALME-3M melanoma
# MOLT-4 leukemia = test system: MOLT-4 leukemia
# T-47D breast = test system: T-47D breast
# MDA-MB-435 = test system: MDA-MB-435
# HOP-18 NSCLC = test system: HOP-18 NSCLC
# NCI-H322M lung = test system: NCI-H322M lung
# SF-268 CNS = test system: SF-268 CNS
# PC-3 prostate = test system: PC-3 prostate
# DLD-1 colon = test system: DLD-1 colon
# HCT-116 colon = test system: HCT-116 colon
# SW-620 colon = test system: SW-620 colon
# LOX IMVI melanoma = test system: LOX IMVI melanoma
# DU-145 prostate = test system: DU-145 prostate
# OVCAR-5 ovarian = test system: OVCAR-5 ovarian
# SK-MEL-2 melanoma = test system: SK-MEL-2 melanoma
# SF-539 CNS = test system: SF-539 CNS
# A498 renal = test system: A498 renal
# SNB-75 CNS = test system: SNB-75 CNS
# CAKI-1 renal = test system: CAKI-1 renal
# UACC-62 melanoma = test system: UACC-62 melanoma
# BT-549 breast = test system: BT-549 breast
smiles,measurement,setting,value
O=C(O)CS[As]1SCCS1,GI50,NCI-H460 lung,57.4 µM
same,TGI,NCI-H460 lung,> 100 µM
same,GI50,OVCAR-3 ovarian,52 µM
same,TGI,OVCAR-3 ovarian,> 100 µM
same,GI50,SNB-19 CNS,84.8 µM
same,TGI,SNB-19 CNS,> 100 µM
same,GI50,EKVX NSCLC,50.7 µM
same,TGI,EKVX NSCLC,> 100 µM
same,GI50,K-562 leukemia,61.4 µM
same,TGI,K-562 leukemia,> 100 µM
same,GI50,HCC-2998 colon,67.5 µM
same,TGI,HCC-2998 colon,> 100 µM
same,GI50,KM20L2 colon,> 100 µM
same,TGI,KM20L2 colon,> 100 µM
same,GI50,NCI-H522 lung,50 µM
same,TGI,NCI-H522 lung,> 100 µM
same,GI50,NCI/ADR-RES ovarian,29.7 µM
same,TGI,NCI/ADR-RES ovarian,93.2 µM
same,GI50,HOP-92 NSCLC,> 100 µM
same,TGI,HOP-92 NSCLC,> 100 µM
same,GI50,M14 melanoma,67.3 µM
same,TGI,M14 melanoma,> 100 µM
same,GI50,SF-295 CNS,56.3 µM
same,TGI,SF-295 CNS,> 100 µM
same,GI50,U251 CNS,59.7 µM
same,TGI,U251 CNS,> 100 µM
same,GI50,OVCAR-4 ovarian,> 100 µM
same,TGI,OVCAR-4 ovarian,> 100 µM
same,GI50,UACC-257 melanoma,94.6 µM
same,TGI,UACC-257 melanoma,> 100 µM
same,GI50,RPMI-8226 leukemia,57 µM
same,TGI,RPMI-8226 leukemia,> 100 µM
same,GI50,CCRF-CEM leukemia,66.6 µM
same,TGI,CCRF-CEM leukemia,> 100 µM
same,GI50,MCF7 breast,44.8 µM
same,TGI,MCF7 breast,> 100 µM
same,GI50,XF 498 CNS,> 100 µM
same,TGI,XF 498 CNS,> 100 µM
same,GI50,IGROV1 ovarian,59.1 µM
same,TGI,IGROV1 ovarian,> 100 µM
same,GI50,SK-OV-3 ovarian,57.4 µM
same,TGI,SK-OV-3 ovarian,> 100 µM
same,GI50,SR leukemia,19.9 µM
same,TGI,SR leukemia,56.3 µM
same,GI50,HOP-62 NSCLC,51.3 µM
same,TGI,HOP-62 NSCLC,94.3 µM
same,GI50,MDA-N,28.4 µM
same,TGI,MDA-N,> 100 µM
same,GI50,HT29 colon,59.4 µM
same,TGI,HT29 colon,> 100 µM
same,GI50,COLO 205 colon,> 100 µM
same,TGI,COLO 205 colon,> 100 µM
same,GI50,UO-31 renal,> 100 µM
same,TGI,UO-31 renal,> 100 µM
same,GI50,NCI-H23 lung,72.7 µM
same,TGI,NCI-H23 lung,> 100 µM
same,GI50,KM12 colon,34.2 µM
same,TGI,KM12 colon,82.1 µM
same,GI50,TK-10 renal,> 100 µM
same,TGI,TK-10 renal,> 100 µM
same,GI50,OVCAR-8 ovarian,61.3 µM
same,TGI,OVCAR-8 ovarian,> 100 µM
same,GI50,HCT-15 colon,39.9 µM
same,TGI,HCT-15 colon,> 100 µM
same,GI50,LXFL 529 NSCLC,> 100 µM
same,TGI,LXFL 529 NSCLC,> 100 µM
same,GI50,ACHN renal,87.8 µM
same,TGI,ACHN renal,> 100 µM
same,GI50,SN12C renal,81.6 µM
same,TGI,SN12C renal,> 100 µM
same,GI50,MDA-MB-231 breast,95.7 µM
same,TGI,MDA-MB-231 breast,> 100 µM
same,GI50,HL-60(TB) leukemia,63.6 µM
same,TGI,HL-60(TB) leukemia,> 100 µM
same,GI50,HS 578T breast,28 µM
same,TGI,HS 578T breast,> 100 µM
same,GI50,786-0 renal,17.3 µM
same,TGI,786-0 renal,> 100 µM
same,GI50,A549 NSCLC,55.9 µM
same,TGI,A549 NSCLC,> 100 µM
same,GI50,M19-MEL melanoma,44.4 µM
same,TGI,M19-MEL melanoma,> 100 µM
same,GI50,RXF 393 renal,81.5 µM
same,TGI,RXF 393 renal,> 100 µM
same,GI50,SK-MEL-5 melanoma,38.9 µM
same,TGI,SK-MEL-5 melanoma,> 100 µM
same,GI50,SNB-78 CNS,> 100 µM
same,TGI,SNB-78 CNS,> 100 µM
same,GI50,SK-MEL-28 melanoma,88.2 µM
same,TGI,SK-MEL-28 melanoma,> 100 µM
same,GI50,NCI-H226 lung,57.4 µM
same,TGI,NCI-H226 lung,> 100 µM
same,GI50,MALME-3M melanoma,56 µM
same,TGI,MALME-3M melanoma,> 100 µM
same,GI50,MOLT-4 leukemia,51 µM
same,TGI,MOLT-4 leukemia,> 100 µM
same,GI50,T-47D breast,> 100 µM
same,TGI,T-47D breast,> 100 µM
same,GI50,MDA-MB-435,22.4 µM
same,TGI,MDA-MB-435,59 µM
same,GI50,HOP-18 NSCLC,> 100 µM
same,TGI,HOP-18 NSCLC,> 100 µM
same,GI50,NCI-H322M lung,3.28 µM
same,TGI,NCI-H322M lung,> 100 µM
same,GI50,SF-268 CNS,44 µM
same,TGI,SF-268 CNS,> 100 µM
same,GI50,PC-3 prostate,34 µM
same,TGI,PC-3 prostate,> 100 µM
same,GI50,DLD-1 colon,> 100 µM
same,TGI,DLD-1 colon,> 100 µM
same,GI50,HCT-116 colon,16 µM
same,TGI,HCT-116 colon,> 100 µM
same,GI50,SW-620 colon,97.3 µM
same,TGI,SW-620 colon,> 100 µM
same,GI50,LOX IMVI melanoma,12.5 µM
same,TGI,LOX IMVI melanoma,> 100 µM
same,GI50,DU-145 prostate,73.3 µM
same,TGI,DU-145 prostate,> 100 µM
same,GI50,OVCAR-5 ovarian,58.5 µM
same,TGI,OVCAR-5 ovarian,> 100 µM
same,GI50,SK-MEL-2 melanoma,43.7 µM
same,TGI,SK-MEL-2 melanoma,85.5 µM
same,GI50,SF-539 CNS,34.8 µM
same,TGI,SF-539 CNS,69.9 µM
same,GI50,A498 renal,92.6 µM
same,TGI,A498 renal,> 100 µM
same,GI50,SNB-75 CNS,22.2 µM
same,TGI,SNB-75 CNS,> 100 µM
same,GI50,CAKI-1 renal,23.2 µM
same,TGI,CAKI-1 renal,> 100 µM
same,GI50,UACC-62 melanoma,73.3 µM
same,TGI,UACC-62 melanoma,> 100 µM
same,GI50,BT-549 breast,58.6 µM
same,TGI,BT-549 breast,> 100 µM
